Biological target: CYP1A2 (Homo sapiens, UniProt P05177)
Settings: both, 30 min, 5 μM

Chains of the proteins cited; added tags and fusions are not shown.
UniProt P05177, whole entry: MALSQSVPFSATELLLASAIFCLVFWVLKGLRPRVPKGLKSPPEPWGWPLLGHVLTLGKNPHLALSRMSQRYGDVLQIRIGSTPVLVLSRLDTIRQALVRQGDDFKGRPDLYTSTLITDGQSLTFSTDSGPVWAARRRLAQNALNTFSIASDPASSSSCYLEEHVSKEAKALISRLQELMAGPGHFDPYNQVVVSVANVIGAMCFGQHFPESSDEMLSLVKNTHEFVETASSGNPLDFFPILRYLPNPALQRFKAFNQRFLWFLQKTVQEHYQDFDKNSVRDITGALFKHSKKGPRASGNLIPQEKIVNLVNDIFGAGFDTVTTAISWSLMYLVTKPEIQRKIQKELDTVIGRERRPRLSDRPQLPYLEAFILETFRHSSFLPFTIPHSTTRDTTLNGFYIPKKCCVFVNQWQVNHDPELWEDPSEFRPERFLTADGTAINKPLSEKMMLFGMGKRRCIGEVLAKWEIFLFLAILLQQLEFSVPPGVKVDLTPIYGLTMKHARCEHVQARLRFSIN

Cc1nc2c([nH]1)c(=O)n(C)c(=O)n2Cc1ccco1 [FUR, furafylline, reference compound]
AC Production: 54.5 ± 1.3 pmol/mg protein/min

Source: patent US8481597B2, “Use of (-) (3-trihalomethylphenoxy) (4-halophenyl) acetic acid derivatives for treatment of insulin resistance, type 2 diabetes, hyperlipidemia and hyperuricemia” (Metabolex, Inc., priority 1999, dated 2013)
